Results taken from patent publication US10370360B2, “Small-molecule inhibitors targeting discoidin domain receptor 1 and uses thereof” (priority 2014, dated 2019).

By UniProt entry, the sequences of proteins in these tests, tags left out. Residues count along the entry.
UniProt P10721, 26-976: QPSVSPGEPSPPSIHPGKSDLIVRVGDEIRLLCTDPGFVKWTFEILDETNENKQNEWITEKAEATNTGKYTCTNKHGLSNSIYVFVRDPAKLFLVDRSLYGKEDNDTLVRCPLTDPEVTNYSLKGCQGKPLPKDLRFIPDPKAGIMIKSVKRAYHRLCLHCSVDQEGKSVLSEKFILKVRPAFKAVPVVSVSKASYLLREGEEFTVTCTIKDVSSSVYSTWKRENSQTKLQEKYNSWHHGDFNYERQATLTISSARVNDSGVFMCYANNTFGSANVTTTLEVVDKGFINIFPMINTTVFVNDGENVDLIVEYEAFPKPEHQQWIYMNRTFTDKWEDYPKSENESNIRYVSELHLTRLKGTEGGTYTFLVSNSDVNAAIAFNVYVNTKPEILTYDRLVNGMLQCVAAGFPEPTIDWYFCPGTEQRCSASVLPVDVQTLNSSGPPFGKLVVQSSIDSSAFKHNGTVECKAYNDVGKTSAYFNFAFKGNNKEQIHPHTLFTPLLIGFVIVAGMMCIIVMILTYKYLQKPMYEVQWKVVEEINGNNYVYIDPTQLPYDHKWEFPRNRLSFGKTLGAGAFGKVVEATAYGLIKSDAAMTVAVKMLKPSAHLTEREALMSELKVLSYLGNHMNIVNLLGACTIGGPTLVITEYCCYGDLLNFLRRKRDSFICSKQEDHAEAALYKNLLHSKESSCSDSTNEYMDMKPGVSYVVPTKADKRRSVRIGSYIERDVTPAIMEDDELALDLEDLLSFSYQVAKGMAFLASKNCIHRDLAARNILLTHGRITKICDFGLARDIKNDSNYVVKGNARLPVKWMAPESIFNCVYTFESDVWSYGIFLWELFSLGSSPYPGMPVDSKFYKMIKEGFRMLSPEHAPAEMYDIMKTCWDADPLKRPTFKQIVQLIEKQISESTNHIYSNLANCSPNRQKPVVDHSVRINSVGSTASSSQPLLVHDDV

These compounds were tested against c-Kit (Homo sapiens (Human), UniProt P10721) (assay: FRET-based Z'-Lyte kinase assay, c-kit). Details: 300 μM ATP.
Format: biochemical

IC50, > 10 µM:
CC1CN(c2cncnc2)Cc2cc(NC(=O)c3cc(CN4CCN(C)CC4)cc(C(F)(F)F)c3)ccc21 (stereo not drawn) [Example 2, N-(4-methyl-2-(pyrimidin-5-yl)-1,2,3,4-tetrahydroisoquinolin-7-yl)-3-((4-methylpiperazin-1-yl)methyl)-5-(trifluoromethyl)benzamide]
C[C@@H]1CN(c2cncnc2)Cc2cc(NC(=O)c3cc(CN4CCN(C)CC4)cc(C(F)(F)F)c3)ccc21 [Example 39, (S)—N-(4-methyl-2-(pyrimidin-5-yl)-1,2,3,4-tetrahydroisoquinolin-7-yl)-3-((4-methylpiperazin-1-yl)methyl)-5-(trifluoromethyl)benzamide]
C[C@H]1CN(c2cncnc2)Cc2cc(NC(=O)c3cc(CN4CCN(C)CC4)cc(C(F)(F)F)c3)ccc21 [Example 40, (R)—N-(4-methyl-2-(pyrimidin-5-yl)-1,2,3,4-tetrahydroisoquinolin-7-yl)-3-((4-methylpiperazin-1-yl)methyl)-5-(trifluoromethyl)benzamide]
